Measurements from patent US20070141619A1, “DRUG RESISTANCE-ASSOCIATED GENE AND USE THEREOF” (BANYU PHARMACEUTICAL CO., Ltd., priority 2000, published 2007).

Tested on: HCT116/NR1
Assay: SRB drug sensitivity, Compound-A-resistant HCT116/NR1
Format: cell-based
Conditions: Homo sapiens, HCT-116, 72 hours with agent
From the text: An emerging colony was isolated and designated as HCT116/NR1.

CC[C@@]1(O)C(=O)OCc2c1cc1n(c2=O)Cc2cc3c(CN(C)C)c(O)ccc3nc2-1 [Topotecan]
IC50: 140 nM
